Consider one compound from ChEMBL document CHEMBL1122012, “Adenosine receptors: targets for future drugs” (J Med Chem, 1982).

Protein sequences, listed by entry. Tags and fused reporters are not part of them. Lines headed by an entry give the natural chain unless they say otherwise; changes in a name come on top.
UniProt P29276: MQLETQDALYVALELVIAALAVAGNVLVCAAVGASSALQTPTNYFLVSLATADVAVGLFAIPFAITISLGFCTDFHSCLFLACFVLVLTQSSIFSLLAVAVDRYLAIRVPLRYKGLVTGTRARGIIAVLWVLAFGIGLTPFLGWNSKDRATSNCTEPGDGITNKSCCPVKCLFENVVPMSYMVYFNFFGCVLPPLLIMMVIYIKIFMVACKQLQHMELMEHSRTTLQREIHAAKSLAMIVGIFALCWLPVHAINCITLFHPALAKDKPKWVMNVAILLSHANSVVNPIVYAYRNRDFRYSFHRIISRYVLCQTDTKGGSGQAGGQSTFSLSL
UniProt P25099: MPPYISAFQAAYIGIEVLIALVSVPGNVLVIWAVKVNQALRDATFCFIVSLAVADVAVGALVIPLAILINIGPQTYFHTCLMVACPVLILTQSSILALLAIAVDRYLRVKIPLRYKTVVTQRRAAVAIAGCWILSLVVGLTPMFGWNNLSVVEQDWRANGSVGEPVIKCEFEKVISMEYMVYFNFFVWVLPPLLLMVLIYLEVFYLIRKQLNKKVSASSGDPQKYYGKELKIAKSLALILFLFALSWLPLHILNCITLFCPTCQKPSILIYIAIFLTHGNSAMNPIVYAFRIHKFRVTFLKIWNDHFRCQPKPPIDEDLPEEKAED
UniProt P30543: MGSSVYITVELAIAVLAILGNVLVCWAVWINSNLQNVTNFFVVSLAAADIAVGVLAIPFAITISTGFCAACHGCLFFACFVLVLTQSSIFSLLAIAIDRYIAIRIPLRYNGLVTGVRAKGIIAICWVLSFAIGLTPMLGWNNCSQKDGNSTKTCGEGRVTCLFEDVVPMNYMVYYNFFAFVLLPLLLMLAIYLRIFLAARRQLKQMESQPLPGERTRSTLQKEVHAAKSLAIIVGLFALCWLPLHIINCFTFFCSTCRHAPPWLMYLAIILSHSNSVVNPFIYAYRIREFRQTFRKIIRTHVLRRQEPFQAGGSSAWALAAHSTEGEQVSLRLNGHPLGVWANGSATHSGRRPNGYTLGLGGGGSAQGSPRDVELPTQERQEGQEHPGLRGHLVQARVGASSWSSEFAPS
UniProt P28647: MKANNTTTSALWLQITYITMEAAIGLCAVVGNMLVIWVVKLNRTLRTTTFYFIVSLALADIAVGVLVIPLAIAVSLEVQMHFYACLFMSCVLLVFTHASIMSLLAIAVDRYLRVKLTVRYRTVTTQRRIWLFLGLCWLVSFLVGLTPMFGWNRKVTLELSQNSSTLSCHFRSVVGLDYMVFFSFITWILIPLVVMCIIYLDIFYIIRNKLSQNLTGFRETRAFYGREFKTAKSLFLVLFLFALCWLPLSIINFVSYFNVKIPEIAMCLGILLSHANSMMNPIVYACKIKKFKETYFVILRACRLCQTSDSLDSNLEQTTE

As usually defined, the Ki is a dissociation constant, usually derived from enzyme kinetics or from competition with a known ligand.

For test [1], the target named is T1, Adenosine receptor (Rattus norvegicus, UniProt P29276+P25099+P30543+P28647). In words: Antagonist binding of 2-chloro-[3H]-adenosine in rat brain. Format: functional, tissue-based.
Test [2] deals with T1, Adenosine receptor. The test is classed as functional.
The target in test [3] is T1, Adenosine receptor. Format: functional. This is another data set of the same source.
Test [4] concerns the target T1, Adenosine receptor.

For `Nc1nc(Cl)nc2c1ncn2[C@@H]1O[C@H](CO)[C@@H](O)[C@H]1O`, the Ki at Adenosine receptor [1] is 1.3 nM; on Adenosine receptor [2], 10 nM; at Adenosine receptor [3], 920 nM; on Adenosine receptor [4] it was 9 nM.
